Results: patent publication US20160347862A1

Assays:
[1] = molecular target: fluorescently labelled dodecapeptide hirugen; experiment: fluorescence titration of fluorescently labelled hirugen with thrombin in the presence of 700 nM IgA as competitor
[2] = molecular target: fluorescently labelled dodecapeptide hirugen; experiment: fluorescence titration of fluorescently labelled hirugen with thrombin, no antibody

EC50 (read off the curve) [1]: 800 nM
EC50 (read off the curve) [2]: 40 nM
Substance: human thrombin (from UniProt P00734 314-363; P00734 364-622) (enzyme)
